Test results from US7683168B2, “Compositions of novel opioid compounds and method of use thereof” (priority 2005, dated 2010).

Sequences of proteins named here, by UniProt entry; tags and fusion partners are left off. A change or cut given only in a name is not applied to a line headed by its entry.
UniProt P35372: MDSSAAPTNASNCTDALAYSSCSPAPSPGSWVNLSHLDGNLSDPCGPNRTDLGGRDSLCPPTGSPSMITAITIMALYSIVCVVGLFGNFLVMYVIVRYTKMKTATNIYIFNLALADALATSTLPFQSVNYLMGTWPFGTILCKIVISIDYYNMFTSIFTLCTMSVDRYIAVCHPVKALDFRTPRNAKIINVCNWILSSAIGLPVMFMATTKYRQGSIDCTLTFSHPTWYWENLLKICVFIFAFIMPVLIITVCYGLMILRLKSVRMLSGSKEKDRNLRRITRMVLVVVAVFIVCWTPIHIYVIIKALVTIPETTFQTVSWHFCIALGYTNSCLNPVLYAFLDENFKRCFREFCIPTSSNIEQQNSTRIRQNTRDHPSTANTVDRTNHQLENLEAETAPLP
UniProt P41143: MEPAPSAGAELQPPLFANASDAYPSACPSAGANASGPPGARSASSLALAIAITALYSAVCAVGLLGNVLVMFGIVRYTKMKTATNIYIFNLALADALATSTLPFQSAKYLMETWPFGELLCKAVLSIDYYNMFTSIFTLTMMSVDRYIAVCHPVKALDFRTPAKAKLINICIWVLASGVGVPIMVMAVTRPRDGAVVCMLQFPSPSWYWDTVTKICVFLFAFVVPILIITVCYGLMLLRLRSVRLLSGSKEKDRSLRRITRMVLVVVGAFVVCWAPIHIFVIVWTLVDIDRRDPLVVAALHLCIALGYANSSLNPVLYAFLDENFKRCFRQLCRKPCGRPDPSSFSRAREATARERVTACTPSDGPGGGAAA

Experiments:
human mu opioid receptor = human mu opioid receptor (Homo sapiens, UniProt P35372); assay: radioligand binding, human mu opioid receptor, CHO cell membranes; conditions: read-out: μ, cell not marked (rat), species not given
[1] = test system: seizure-like convulsions in mice; assay: mouse seizure-like convulsions; format: in vivo; conditions: 10 mg/kg IV
Description: Mouse Seizure-Like Convulsions and antinociception: The central (CNS) effects of the compound were tested with central delta receptor mediated seizure-like convulsions and central mu opioid receptor mediated antinociceptive effects in mice. Male CD-1 mice (Charles River, Raleigh, N.C.) weighing 20-25 g were used to determine the seizure-like convulsion and antinociception activities for compounds.
They were then observed for seizure-like convulsions for one hour following the treatment. A seizure-like event was recorded if a mouse had uncontrollable clonic (or tonic/clonic) muscle movements that encompassed its entire body, usually followed by a brief cataleptic period. Catalepsy was determined by placing the animal's front paws on a horizontal bar held 2-3 inches from the cage floor. Cataleptic animals made no attempt to remove their paws.

guinea pig ileum = assay: electrically stimulated guinea pig ileum (GPI) ED50; format: cell-based; conditions: read-out: GPI; ED50, inhibition of electrically induced contractions
Description: Further the compounds of formula (1) were evaluated for in vitro opioid receptor activity in various receptor systems, including mouse vas deferens (Mouse Vas Deferens ED50), and guinea pig ileum (Guinea Pig Ileum ED50). The assay procedures used for such determinations of receptor activity are set out below.
Intact ileums (about 3 cm length) were removed from guinea pig and suspended with 1 g of tension in a bath chamber as described for the vasa deferentia. The ileums were stimulated with electrical square-wave pulses of 0.1-Hz, 1 msec pulse duration at supramaximal voltage.
The ED50 values were extrapolated from curves showing the dose concentration plotted against the response (J. A. H. Lord, A. A. Waterfield, J. Hughes, H. W. Kosterlitz, Nature 267, 495, (1977)).

mouse vas deferens = assay: electrically stimulated mouse vas deferens (MVD) ED50; format: cell-based; conditions: read-out: MVD; ED50, inhibition of electrically induced contractions
human delta receptor = human delta receptor (Homo sapiens, UniProt P41143); assay: radioligand binding, human delta receptor, HEK-293 cell membranes; conditions: read-out: δ, cell not marked (rat), species not given

Row | Substance | Ki (human mu opioid receptor) [nM] | Seiz. [1] [% 10 mg/kg IV] | EC50 (guinea pig ileum) [nM] | EC50 (mouse vas deferens) [nM] | Ki (human delta receptor) [nM]
1 | 4-(4-{3-[(R)-((2S,5R)-4-Allyl-2,5-dimethyl-piperazin-1-yl)-(3-hydroxy-phenyl)-methyl]-benzoyl}-piperazin-1-ylmethyl)-benzoic acid | 30.7 | 0 | 304 | 9.82 | 1.7
2 | 7-(4-{3-[(R)-((2S,5R)-4-Cyclopropylmethyl-2,5-dimethyl-piperazin-1-yl)-(3-hydroxy-phenyl)-methyl]-benzoyl}-[1,4]diazepan-1-yl)-heptanoic acid | 4 | – | – | 39 | 23.2
